Measured values: PubChem BioAssay AID1018 (Sanford-Burnham Center for Chemical Genomics, 2008)
This is a selection; strong and weak results do not stand in their true shares. Active and inactive are the calls of the source. Rule as the data show it: active = displacement above about 50%; inactive = the rest.

The chains behind the UniProt entries cited, without tags or fusion partners.
UniProt P98170, whole entry: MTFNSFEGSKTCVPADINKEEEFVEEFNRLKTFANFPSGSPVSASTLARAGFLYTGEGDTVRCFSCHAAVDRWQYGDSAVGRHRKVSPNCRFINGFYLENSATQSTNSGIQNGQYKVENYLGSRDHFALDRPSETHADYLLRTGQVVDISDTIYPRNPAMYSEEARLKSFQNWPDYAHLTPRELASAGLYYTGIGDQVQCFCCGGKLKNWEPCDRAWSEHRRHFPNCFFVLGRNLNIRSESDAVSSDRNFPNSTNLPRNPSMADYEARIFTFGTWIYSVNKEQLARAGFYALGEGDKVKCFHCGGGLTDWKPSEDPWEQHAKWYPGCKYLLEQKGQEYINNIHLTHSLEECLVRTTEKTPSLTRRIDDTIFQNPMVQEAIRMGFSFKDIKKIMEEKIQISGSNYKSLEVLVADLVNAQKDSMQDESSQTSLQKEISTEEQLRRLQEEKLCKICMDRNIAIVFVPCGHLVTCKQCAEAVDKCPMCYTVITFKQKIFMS

Target: E3 ubiquitin-protein ligase XIAP (Homo sapiens) (UniProt P98170)
Test: XIAP antagonists, biochemical, IAP family, fluorescence polarization (AID 1018)
Settings: XIAP BIR domain, fluorescence polarization peptide displacement; at 20 µM; active compounds read high

Structure (SMILES)	displacement
CCN1CCC(Nc2cccc(F)c2)CC1	inactive: -3.8%
CN(C)c1ccc(C(=O)NCC2(N3CCCCC3)CCCCC2)cc1	inactive: -3.2%
Fc1ccccc1NC1CCN(Cc2ccccc2)CC1	inactive: -7%
CCC(CO)(C(=O)OC1CN2CCC1CC2)c1ccccc1 (stereo not given)	inactive: -8.8%
COc1cc(OC)cc(C(=O)NCC2(N3CCOCC3)CCCCC2)c1	inactive: -2.7%
CCOc1ncccc1C(=O)NCC1(N2CCOCC2)CCCCC1	inactive: -2.3%
CC(C)(C)OC(=O)N1CCC(Nc2ccccc2)CC1	inactive: -4.3%
N/C(=N\O)c1c(N)no[n+]1[O-]	inactive: 2.5%
O=C(OC1CN2CCC1CC2)C1c2ccccc2C=Cc2ccccc21 (stereo not given)	inactive: -1.7%
COc1ccc(C(=O)NCC2(N3CCOCC3)CCCCC2)cc1OC	inactive: -3.2%
c1ccc(CN2CCC(Nc3ccccc3)CC2)cc1	inactive: -4.2%
N#Cc1ccc(C(=O)NCC2(N3CCCCC3)CCCCC2)cc1	inactive: -10%
COc1ccc(NC2CCN(C(=O)OC(C)(C)C)CC2)cc1	inactive: -4.6%
CN1CCN(CCOC(=O)C(O)(c2ccccc2)c2ccccc2)CC1	inactive: -3%
O=C(NCC1(N2CCOCC2)CCCCC1)c1cc(=O)[nH]c2ccccc12	inactive: -5.2%
O=C(NCC1(N2CCCCC2)CCCCC1)c1cccc([N+](=O)[O-])c1	inactive: -5.4%
N#CC1(Nc2ccccc2)CCN(CCc2ccccc2)CC1	inactive: -4.2%
COc1ccc(CN(CCCl)CCCl)cc1Cl	inactive: 0.5%
CN(C)c1cccc(C(=O)NCC2(N3CCCCC3)CCCCC2)c1	inactive: -5.8%
CC(C)c1ccc(NC2CCN(C(=O)OC(C)(C)C)CC2)cc1	inactive: -10.6%
O=C(NCC1(N2CCOCC2)CCCCC1)c1cc2ccccc2o1	inactive: -2%
CCOC(=O)N1CCC(Nc2ccc(OC)cc2)CC1	inactive: -4.3%
O=C(OC1CN2CCC1CC2)C1c2ccccc2Oc2ccccc21 (stereo not given)	inactive: -6.1%
COc1ccc(C(=O)NCC2(N3CCCCC3)CCCCC2)c(OC)c1OC	inactive: -8.9%
COc1ccc(NC2CCN(CCc3ccccc3)CC2)c(OC)c1	inactive: -6.8%
